The results in this text go back to PubChem BioAssay AID651958 (The Scripps Research Institute Molecular Screening Center, 2012).

Only a part is listed here, and it is no random draw. Activity calls are given as the source filed them. No stated cut-off is given here; in the data, active means inhibition above about 30%; inactive means the rest.

The subject of the assay is Crimean-Congo hemorrhagic fever virus L polyprotein viral ovarian tumor (vOTU) protease domain. Nature of the assay: CCHFV vOTU protease inhibitors, primary screen, biochemical, Pep-AMC substrate, fluorescence (AID 651958). Further: 0% = vehicle wells with enzyme and 100% = no enzyme wells. To be noted: at 11.5 µM, active compounds read high.
For the molecule `CCC(=O)N(c1ccccc1)C1(COC)CCN(CCc2cccs2)CC1`, the inhibition (as a rule, the relative decrease from the control value, in per cent) is inactive: -0.98%. On to `CCC(=O)N(c1ccccc1)C1(COC)CCN(CCn2nnn(CC)c2=O)CC1`, for which the inhibition is inactive: 1.99%.
